The text below walks through data of ChEMBL document CHEMBL2046359, “Novel tricyclic indeno[2,1-d]pyrimidines with dual antiangiogenic and cytotoxic activities as potent antitumor agents” (Bioorg Med Chem, 2012).

This test can be described thus: Inhibition of Escherichia coli thymidylate synthase.

Regarding `Cc1nc(=O)c2cc(CN(C)c3ccc(C(=O)N[C@@H](CCC(=O)O)C(=O)O)s3)ccc2[nH]1` [RALTITREXED], 2300 nM corresponded to half-maximal inhibition (IC50).
